The record followed here is patent publication US8129592B2, “Plant isoflavonoid hydroxylases and methods of use thereof” (The Samuel Roberts Noble Foundation, Inc., priority 2003, dated 2012).

In the assay the target is T1, MtCYP81E8 (Medicago truncatula, UniProt Q6WNQ8).
T1 construct: The full length CYP81E8 cDNA was directly excised from its original clone; made in house; host or cells: Saccharomyces cerevisiae WAT11, vector YeDP60; microsomal fraction
T1 sequence (Q6WNQ8 1-499): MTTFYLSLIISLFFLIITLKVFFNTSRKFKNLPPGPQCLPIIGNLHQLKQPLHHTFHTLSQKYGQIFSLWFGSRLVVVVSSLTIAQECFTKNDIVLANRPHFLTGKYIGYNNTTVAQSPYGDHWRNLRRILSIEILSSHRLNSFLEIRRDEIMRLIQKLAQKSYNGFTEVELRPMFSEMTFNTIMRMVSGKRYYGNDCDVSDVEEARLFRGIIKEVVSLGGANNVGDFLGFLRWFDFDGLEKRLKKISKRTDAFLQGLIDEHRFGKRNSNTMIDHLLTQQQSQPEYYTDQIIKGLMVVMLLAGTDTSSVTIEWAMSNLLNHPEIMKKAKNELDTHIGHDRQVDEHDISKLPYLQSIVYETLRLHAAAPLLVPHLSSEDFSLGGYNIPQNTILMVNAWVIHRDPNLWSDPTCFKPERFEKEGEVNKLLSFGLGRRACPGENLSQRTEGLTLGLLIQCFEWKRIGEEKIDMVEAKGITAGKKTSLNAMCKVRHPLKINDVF
The assay is described as follows: Hydroxylase assay with yeast microsomes expressing recombinant MtCYP81E8. The assay is classed as biochemical. The note with it: standard assay conditions, or at different pH values and NADPH concentrations. The text has this:
PCR products were digested with BamHI and KpnI and ligated into the yeast expression vector YeDP60 following BamHI/KpnI digestion. MtCYP81E8 was directly excised from the original clone in pBSK(+) by BamHI and KpnI and inserted into YeDP60. All constructs were sequenced to ensure that there were no PCR-introduced errors. The constructs were then transferred into yeast (Saccharomyces cerevisiae) strain WAT11 with a chromosomally integrated Arabidopsis NADPH: cytochrome P450 reductase gene (Pompon et al., 1996) by the LiAc method (Gietz et al., 1992), and transformants selected on SDI media (Pompon et al., 1996). […]
After incubation at ˜80 rpm for 30 to 40 min, spheroplasts were centrifuged down for 5 min, washed twice with Zymolyase buffer B, and then twice with phosphate buffer A (0.1 M potassium phosphate pH 8.0, 1 M sorbitol, 14 mM 2-mercaptoethanol). […] Protein was quantified using a Bio-Rad protein assay kit (Bio-Rad, Hercules, Calif.).
Hydroxylase assays were performed in phosphate buffer C in a total volume of 150 μl containing 2 mM NADPH, 40 μM isoflavone substrate and 40˜70 pmol P450 protein. […] The extracts were combined, evaporated under N2, re-suspended in 60 μl of methanol, and analyzed by HPLC or LC-MS. […]
Reaction products from enzyme assays (30 μl) were analyzed by HPLC. […] UV absorption was monitored at 235, 254, 287 and 310 nm with a photodiode array detector. […]

The structures appear in SMILES notation.

Turning to `O=c1c(O)c(-c2ccc(O)cc2)oc2cc(O)cc(O)c12` [kaempferol], the “Activity of recombinant MtCYP81E8 with substrate (in words)” value is given as “no activity”.
